# Measurements from patent US20030054047A1 (priority 2001, published 2003).
# Tested on: MDCK cells
# Conditions: dog
structure (smiles),measurement,value
"NC(=O)c1ncn([C@@H]2O[C@H](CO)[C@@H](O)[C@H]2O)n1 [Ribavirin, 1-β-D-ribafuranosyl-1,2,4-triazole-3-carboxamide]",TC0 (maximum non-toxic / tolerable concentration),>1.0 mg/mL
